Values of other authors as cited in patent publication US11512075B2 (priority 2017, dated 2022).

Protein sequences, listed by entry. Tags and fused reporters are not part of them. Lines headed by an entry give the natural chain unless they say otherwise; changes in a name come on top.
UniProt P41145: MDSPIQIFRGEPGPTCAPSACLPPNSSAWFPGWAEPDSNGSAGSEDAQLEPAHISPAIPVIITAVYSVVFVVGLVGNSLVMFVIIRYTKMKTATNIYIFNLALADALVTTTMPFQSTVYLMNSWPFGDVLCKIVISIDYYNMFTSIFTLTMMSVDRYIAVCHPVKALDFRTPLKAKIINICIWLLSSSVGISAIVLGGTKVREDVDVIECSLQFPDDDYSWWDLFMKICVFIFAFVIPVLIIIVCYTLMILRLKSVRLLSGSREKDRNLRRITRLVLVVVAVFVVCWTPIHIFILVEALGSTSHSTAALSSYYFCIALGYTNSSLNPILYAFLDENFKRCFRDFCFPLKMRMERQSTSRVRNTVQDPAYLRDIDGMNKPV

Biological target: kappa-opioid receptor (Homo sapiens, UniProt P41145)
Conditions: C8 epimerization; cited from earlier work

Compound: COC(=O)[C@@H]1C[C@H](OC(C)=O)C(=O)[C@H]2[C@@]1(C)CC[C@H]1C(=O)O[C@H](c3ccoc3)C[C@]21C [8-epi-SA, 8-epi-salvinorin A]
- loss in potency versus SalA: 154-356 fold
